# Test results as given in PubChem BioAssay AID493091 (Sanford-Burnham Center for Chemical Genomics, 2011).
# Amino acid sequences for entries named in this document (tags omitted). A change or cut given only in a name is not applied to a line headed by its entry.
# UniProt Q9GZU7: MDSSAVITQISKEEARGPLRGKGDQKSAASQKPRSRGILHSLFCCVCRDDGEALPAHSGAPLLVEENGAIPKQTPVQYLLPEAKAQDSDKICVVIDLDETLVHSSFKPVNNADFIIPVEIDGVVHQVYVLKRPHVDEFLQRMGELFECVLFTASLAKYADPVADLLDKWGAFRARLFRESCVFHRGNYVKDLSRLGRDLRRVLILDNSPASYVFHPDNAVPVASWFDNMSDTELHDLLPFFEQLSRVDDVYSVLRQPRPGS
# The entries are a selection whose mix differs from that of the whole data set. Calls of active or inactive are those of the source.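 The calls were made as follows: active = inhibition above about 50% at 20 µM (limit read from the data); inactive = the rest.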
# Molecular target: Carboxy-terminal domain RNA polymerase II polypeptide A small phosphatase 1 (Homo sapiens) (UniProt Q9GZU7)
# Assay: inhibition of human SCP1 dephosphorylation activity – biochemical, colorimetric, uHTS, primary screen (AID 493091);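 also: plate controls were DMSO wells with enzyme for no effect and wells lacking enzyme for full effect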
# Conditions: Recombinant Scp1, phosphopeptide, malachite green phosphate absorbance; at 20 µM; stronger effect = higher value
# Summary of the method: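 assay system = SCP-1 phosphatase catalytic domain, residues 76-261 | buffer or medium = 50 mM Tris acetate pH 5.5, 0.005% Tween-20, 10 mM MgCl2 | incubation = enzyme reaction 45 min at room temperature, colour 5 min, stabilisation 30 min | signal = Phosphate-binding colour reagent, absorbance read at 630 nm | measure = % inhibition at 20 µM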
row,SMILES,inhibition
1,COc1ccc(N)c([N+](=O)[O-])c1[N+](=O)[O-],inactive: 21.8%
2,O=P(Nc1nc2ccccc2s1)(c1ccccc1)c1ccccc1,inactive: 0.89%
3,C[C@H]1OP(=O)(Oc2ccccc2)[C@H](O)[C@H](O)[C@H]1N=[N+]=[N-] (stereo partly specified),inactive: -2.7%
4,CC(C)C(=O)NC(Sc1ccccc1)C(Cl)(Cl)Cl (stereo unspecified),inactive: -1%
5,O=P(Nc1nccs1)(c1ccccc1)c1ccccc1,inactive: 5.56%
6,c1nnnn1CCn1cnnn1,inactive: 0%
7,CCN(/C(=N/P(=O)(N1CCOCC1)N1CCOCC1)N1CCOCC1)c1ccc(OC)cc1,inactive: -4.6%
8,Nc1ccc([As](=O)(O)c2ccc(N)cc2)cc1,inactive: -20.2%
9,C[N+]1=C2C=CC=CC=C2SC12C([N+](=O)[O-])=CC([N+](=O)[O-])=C[C-]2[N+](=O)[O-] (stereo unspecified),active: 73.2%
10,CC1CCN(C(=O)Oc2c(Cl)cc(Cl)c3cccnc23)CC1,inactive: -0.09%
11,CC(C)=N/N=C(\N)N[N+](=O)[O-],inactive: -4.48%
12,CN(C)C(=O)OCCc1n(C)cc[n+]1C,inactive: -4.15%
13,COc1ccc(C2=NCC(CBr)S2)cc1 (stereo unspecified),inactive: -1.73%
14,Cc1ccc(NP(=O)(Oc2ccccc2)Oc2ccccc2)nc1,inactive: -3.89%
15,CCc1nc2c(n1)c1c(non1O)c1c2no[n+]1[O-],inactive: -10.8%
16,O=[N+]([O-])c1cc([N+](=O)[O-])c(CCNc2ccccc2)c([N+](=O)[O-])c1,inactive: -6.19%
17,O=[N+]([O-])c1cccc2n[nH]nc12,inactive: -3.29%
18,CC(=O)N1C2C3N(C(C)=O)C1C1N(C(C)=O)C(C(N1C(C)=O)N3C(C)=O)N2C(C)=O,inactive: -6%
19,O=[N+]([O-])c1ncn(CCn2ncnc2[N+](=O)[O-])n1,inactive: -2.22%
20,CC(C)(C)C(=O)NC(Sc1ccncn1)C(Cl)(Cl)Cl (stereo unspecified),inactive: 9.14%
21,O=C(O)CNc1ccc([As](=O)(O)O)cc1,inactive: 5.21%
22,COC(=O)C1(C)COP(=O)(Nc2ccccc2)OC1 (stereo unspecified),inactive: -2.79%
23,O=[N+]([O-])c1cccc(NC2=NCC(CBr)S2)c1 (stereo unspecified),inactive: -11.4%

row,SMILES,inhibition
1,O=P1(N(CCCl)CCCl)OCCCS1 (stereo unspecified),inactive: -2.23%
2,O=C(Nc1cc([As](=O)(O)O)ccc1O)c1ccccc1,inactive: 11.7%
3,Nc1cccc2ccc([As](=O)(O)O)cc12,active: 66.8%
4,CCN(N=Nc1nonc1N)c1nonc1N,inactive: 0.21%
5,O=P(Nc1nc2ccc(Cl)cc2s1)(c1ccccc1)c1ccccc1,inactive: -6.56%
6,CC(=O)Nc1ccc([As](=O)(O)O)cc1,inactive: -7.13%
7,O=C(O)c1ccccc1[As](=O)(O)O,inactive: 1.45%
8,CCCC1OP(N)(=O)OCC1CC (stereo unspecified),inactive: -3.9%
9,Cc1cc(SC(NC(=O)c2ccc(F)cc2)C(Cl)(Cl)Cl)ncn1 (stereo unspecified),inactive: -4.56%
10,CCOP(=O)(Nc1ccccc1)OCC,inactive: -9.54%
11,Cc1ccc(NP(=O)(Oc2ccccc2F)Oc2ccccc2F)nc1,inactive: 0.11%
12,CN(C(=O)Cc1ccc(Cl)c(Cl)c1)[C@H]1CCCC[C@@H]1N1CCCC1,inactive: -6.29%
13,Oc1ccccc1CNc1ccccn1,inactive: -2.05%
14,O=C(NC(Sc1ccncn1)C(Cl)(Cl)Cl)c1ccccc1 (stereo unspecified),inactive: -7.42%
15,Nc1cc(N)c2nonc2c1[N+](=O)[O-],inactive: 30.8%
16,CC(C)CC(=O)NC(Sc1ccc(Cl)cc1)C(Cl)(Cl)Cl (stereo unspecified),inactive: -6.35%
17,CN(C(=O)Cc1ccc(Cl)c(Cl)c1)[C@H]1CCCC[C@H]1N1CCCC1,inactive: -0.69%
18,Cc1ccc(N/C(=N/P(=O)(N2CCOCC2)N2CCOCC2)N2CCOCC2)cc1,inactive: -4.09%
19,NC(=O)c1cc([N+](=O)[O-])cc([N+](=O)[O-])c1N,inactive: -8.1%
20,CN1CCCC(OC(=O)C(c2ccccc2)c2ccccc2)C1 (stereo unspecified),inactive: -7.59%
21,Clc1ccc(Cl)c(NC2=NCC(CBr)S2)c1 (stereo unspecified),inactive: -5.03%
22,COc1ccccc1OP(=O)(Nc1ccc(C)cn1)Oc1ccccc1OC,inactive: 1.45%
23,Cc1ccc(OP(=O)(Nc2nccs2)Oc2ccc(C)cc2)cc1,inactive: -8.94%
